From patent publication US10316008B2, “KCNQ potassium channel agonist, and preparation method therefor and use thereof” (SHANGHAI INSTITUTE OF MATERIA MEDICA, CHINESE ACADEMY OF …, priority 2014, dated 2019)

Sequences of proteins named here, by UniProt entry; tags and fusion partners are left off.
UniProt O43525, whole entry: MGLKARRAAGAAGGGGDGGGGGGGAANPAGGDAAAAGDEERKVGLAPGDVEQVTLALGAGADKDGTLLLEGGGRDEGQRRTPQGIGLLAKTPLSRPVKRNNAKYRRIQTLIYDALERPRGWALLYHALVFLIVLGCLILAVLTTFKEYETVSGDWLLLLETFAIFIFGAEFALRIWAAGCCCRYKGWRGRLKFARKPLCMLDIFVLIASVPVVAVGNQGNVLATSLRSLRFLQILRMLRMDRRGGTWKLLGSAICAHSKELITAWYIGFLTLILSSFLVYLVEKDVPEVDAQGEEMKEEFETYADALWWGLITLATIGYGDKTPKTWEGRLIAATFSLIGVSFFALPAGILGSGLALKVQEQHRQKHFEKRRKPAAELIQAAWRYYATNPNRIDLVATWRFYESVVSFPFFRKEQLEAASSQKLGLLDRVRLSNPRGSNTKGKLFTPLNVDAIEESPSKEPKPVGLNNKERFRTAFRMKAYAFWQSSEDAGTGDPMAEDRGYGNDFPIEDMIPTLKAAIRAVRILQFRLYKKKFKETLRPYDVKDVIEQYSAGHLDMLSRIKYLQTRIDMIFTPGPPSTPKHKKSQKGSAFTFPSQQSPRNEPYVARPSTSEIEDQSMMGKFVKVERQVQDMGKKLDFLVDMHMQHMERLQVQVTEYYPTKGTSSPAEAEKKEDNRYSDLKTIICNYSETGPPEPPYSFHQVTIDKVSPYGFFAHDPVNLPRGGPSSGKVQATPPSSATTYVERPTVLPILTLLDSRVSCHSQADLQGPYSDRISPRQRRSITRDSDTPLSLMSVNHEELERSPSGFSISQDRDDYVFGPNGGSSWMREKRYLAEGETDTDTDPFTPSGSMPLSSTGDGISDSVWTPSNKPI
UniProt O43526, whole entry: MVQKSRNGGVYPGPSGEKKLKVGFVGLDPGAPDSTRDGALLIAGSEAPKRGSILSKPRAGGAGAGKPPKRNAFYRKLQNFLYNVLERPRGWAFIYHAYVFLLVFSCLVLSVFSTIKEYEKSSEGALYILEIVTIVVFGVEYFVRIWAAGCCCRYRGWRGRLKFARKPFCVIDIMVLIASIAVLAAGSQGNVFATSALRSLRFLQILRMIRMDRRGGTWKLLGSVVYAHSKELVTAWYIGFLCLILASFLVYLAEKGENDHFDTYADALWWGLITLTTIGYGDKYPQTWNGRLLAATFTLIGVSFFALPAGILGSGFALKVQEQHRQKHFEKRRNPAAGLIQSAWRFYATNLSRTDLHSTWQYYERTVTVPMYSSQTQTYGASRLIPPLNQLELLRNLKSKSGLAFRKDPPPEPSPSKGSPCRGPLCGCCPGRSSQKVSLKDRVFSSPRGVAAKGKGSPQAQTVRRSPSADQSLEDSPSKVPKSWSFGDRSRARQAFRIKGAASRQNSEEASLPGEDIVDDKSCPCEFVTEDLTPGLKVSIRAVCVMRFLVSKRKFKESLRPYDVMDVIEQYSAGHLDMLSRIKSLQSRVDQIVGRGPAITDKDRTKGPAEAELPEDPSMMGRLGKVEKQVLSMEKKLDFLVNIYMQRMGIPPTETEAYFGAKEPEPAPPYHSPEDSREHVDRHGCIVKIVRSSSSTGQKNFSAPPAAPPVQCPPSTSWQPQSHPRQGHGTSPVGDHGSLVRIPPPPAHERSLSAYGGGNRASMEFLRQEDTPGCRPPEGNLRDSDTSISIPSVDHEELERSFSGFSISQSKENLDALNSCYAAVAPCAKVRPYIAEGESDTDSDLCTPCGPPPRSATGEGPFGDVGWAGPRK

Key:
[1] = Safety assessment, lethal dose after single oral administration; format: in vivo
[2] = molecular target: KCNQ2/3 heterotetramer channel (Homo sapiens, UniProt O43525+O43526); assay: KCNQ2/3 heterotetramer channel dose-response curve in CHO-K1 cells cotransfected with KCNQ2 and KCNQ3 plasmids; conditions: FIG. 2, Boltzmann fit
Protocol: The culture medium for Chinese hamster oocytes (CHO-K1) (Culture Collection of Chinese Academy of Sciences): 50/50 DMEM/F-12 (Cellgro, Manassas, Va.), added with 10% fetal bovine serum (FBS) (Gibco, Australia) and 2 mM L-glutamic acid (Invitrogen). Expression of KCNQ channels: 24 h before transfection, CHO-K1 spreaded on a dish with a diameter of 60 mm. Lipofectamine 2000™ agent (Invitrogen) was used for Transfection according to the protocol thereof. GFP (green fluorescent protein) was cotransfected to be used as a indication of successful converting into KCNQ plasmid.
Whole-cell voltage-clamp recording was performed on an Axopatch-200B amplifier (Molecular Devices, Sunnyvale, Calif.) at room temperature. The electrode was made by drawing borosilicate glass capillary (World Precision Instruments, Sarasota, Fla.). The electric resistance of the electrode filled with an intracellular fluid is 3 to 5 MΩ. The composition of the intracellular fluid (1 L) was as follows: 145 mM KCl(Sigma), 1 mM MgCl2(Sigma), 5 mM EGTA(Sigma), 10 mM HEPES(Sigma) and 5 mM MgATP(Sigma) (pH was adjusted to 7.3 with KOH). During the recording, an extracellular fluid was continuously perfused by using a BPS perfusion system (ALA Scientific Instruments, Westburg, N.Y.). […]

[3] = mice, orally administered (WO2013060097); cited from earlier work

SMILES: C#CCN(Cc1ccc(F)cc1)c1ccc(NC(=O)OCC)c(N)c1
- dose at which death of rats can be observed [1]: greater than 30 mg/kg
- EC50 [2]: 1900 nM
- exposure amount in brain tissue relative to plasma [3]: 2.4 time
